Target: Voltage-gated inwardly rectifying potassium channel KCNH2 (Homo sapiens, UniProt Q12809)
Test: Displacement of [[…]]MK499 from human ERG expressed in HEK cells
Assay type: cell-based, HEK293

By UniProt entry, the sequences of proteins in these tests, tags left out. Where a name states a change or a piece, a line headed by the entry shows the natural chain unless it says otherwise.
UniProt Q12809: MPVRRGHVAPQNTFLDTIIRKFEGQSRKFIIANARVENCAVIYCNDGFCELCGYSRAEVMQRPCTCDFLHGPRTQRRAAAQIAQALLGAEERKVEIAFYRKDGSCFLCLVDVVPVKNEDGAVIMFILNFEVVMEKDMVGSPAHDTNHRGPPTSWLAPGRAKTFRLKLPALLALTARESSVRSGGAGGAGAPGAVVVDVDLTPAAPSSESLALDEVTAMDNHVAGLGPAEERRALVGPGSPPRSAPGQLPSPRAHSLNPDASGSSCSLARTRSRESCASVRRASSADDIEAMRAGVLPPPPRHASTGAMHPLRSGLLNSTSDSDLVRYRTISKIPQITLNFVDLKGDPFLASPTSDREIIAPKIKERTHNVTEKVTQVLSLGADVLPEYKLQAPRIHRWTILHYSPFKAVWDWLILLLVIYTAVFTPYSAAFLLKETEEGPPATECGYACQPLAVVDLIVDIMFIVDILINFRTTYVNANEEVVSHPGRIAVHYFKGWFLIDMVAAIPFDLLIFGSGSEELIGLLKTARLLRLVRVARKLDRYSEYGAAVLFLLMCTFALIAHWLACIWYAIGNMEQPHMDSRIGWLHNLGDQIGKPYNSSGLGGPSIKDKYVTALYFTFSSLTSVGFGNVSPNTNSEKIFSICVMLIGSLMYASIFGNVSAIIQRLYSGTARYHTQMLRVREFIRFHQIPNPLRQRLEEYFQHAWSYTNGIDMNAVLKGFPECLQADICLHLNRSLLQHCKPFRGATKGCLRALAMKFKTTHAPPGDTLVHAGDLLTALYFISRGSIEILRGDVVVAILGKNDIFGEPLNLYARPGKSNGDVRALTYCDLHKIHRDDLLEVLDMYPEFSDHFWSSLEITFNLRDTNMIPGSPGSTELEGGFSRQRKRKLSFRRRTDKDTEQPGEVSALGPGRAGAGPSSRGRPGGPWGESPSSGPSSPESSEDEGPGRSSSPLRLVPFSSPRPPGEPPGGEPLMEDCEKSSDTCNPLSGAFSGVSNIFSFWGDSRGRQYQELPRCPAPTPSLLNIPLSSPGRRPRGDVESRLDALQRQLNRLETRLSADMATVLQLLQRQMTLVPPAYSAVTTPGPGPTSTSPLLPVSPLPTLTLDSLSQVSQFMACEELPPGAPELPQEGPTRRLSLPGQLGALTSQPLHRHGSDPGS

SMILES | IC50
CC(C)[C@]1(C(=O)NCc2cc(C(F)(F)F)cc(C(F)(F)F)c2)CC[C@@H](N2CCC(c3cccnc3)CC2)C1 (relative stereo) | 0.224 µM
CC(C)(O)[C@]1(C(=O)NCc2cc(C(F)(F)F)cc(C(F)(F)F)c2)CC[C@@H](N2CCC(c3cncnc3)CC2)C1 | 0.844 µM
